Our source for the Toxicity values is ChEMBL document CHEMBL1122654, “Phosphorus analogues of gamma-aminobutyric acid, a new class of anticonvulsants” (J Med Chem, 1984).

In data set [1] the test system is Mus musculus. Description: In vivo neurotoxicity at 600 mg/kg, number of animals exhibiting neurotoxicity in the rotarod test / number of animals tested at 0.5 hr.
In data set [2] the test system is Mus musculus. Put plainly: In vivo neurotoxicity at 600 mg/kg, number of animals exhibiting neurotoxicity in the rotarod test / number of animals tested 4 hr. For orientation: The rotarod test checks motor coordination on a turning rod.

SMILES strings stand for the structures.

`CCOP(=O)(NCCN)OCC`: the Toxicity entry in the data set on Mus musculus [1] is on record as “Partially active”; in the data set on Mus musculus [2], “Not Active”.
